Values quoted from earlier work, collected in patent publication US8466203B2, “Method of stabilizing human eye tissue by reaction with nitrite and related agents such as nitro compounds” (priority 2006, dated 2013).

Test system: corneal endothelial cell (primary)
Conditions: 12 hrs exposure, in serum free medium, bovine primary, trypan blue, Naor 2001; cited from earlier work

Providone iodine
Toxic concentration: (0.1%) in
